Apparent affinities of Ab-95 variants for a coronavirus HR2 peptide

From the AlphaSeq antibody data of Engelhart et al. 2022 (doi:10.1038/s41597-022-01779-4), copy in the FLAb collection.

Target peptide (SARS-CoV-2 spike, HR2 region): PDVDLGDISGINAS

Parent scFv Ab-95: VH joined to VL by three GGGGS repeats. Changes lie in the light chain CDRs alone.
VH: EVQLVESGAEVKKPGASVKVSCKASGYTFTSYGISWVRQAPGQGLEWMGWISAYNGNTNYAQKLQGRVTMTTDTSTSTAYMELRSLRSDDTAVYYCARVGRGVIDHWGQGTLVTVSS
VL: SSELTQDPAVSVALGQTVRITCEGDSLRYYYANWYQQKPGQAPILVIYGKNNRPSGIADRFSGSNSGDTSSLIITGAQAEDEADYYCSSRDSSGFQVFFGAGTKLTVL

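Phage display of a naive human antibody library on the peptide gave the parent. Library AAYL52 holds single substitutions and randomly drawn double and triple substitutions in the CDRs. Affinity was read by AlphaSeq, a pooled yeast mating assay with surface-displayed partners. The frequency of each diploid, read from paired DNA barcodes, reflects how well the two displayed proteins bind. Each replicate has its own calibration line, from reference interactions of the BCL2 family. Each pool was mated in three replicate cultures.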

Variants are written as CDR1, CDR2 and CDR3 of the light chain (limits as in the source). Parent: EGDSLRYYYAN, GKNNRPS, SSRDSSGFQVF.
The read-out is the apparent dissociation constant on a log10 scale (nM): the lower, the stronger.
A mean of the replicates is given; it leaves out those without a signal.
An entry "no signal" has no value in the source: the pair was not observed among the diploids in any replicate. This suggests poor binding but is not conclusive.
For reference, the parent read 2.31 as the reference entry and 2.25 as a member of this library.
Empty control strains, which show no peptide, gave a signal in 28% of pairings with library AAYL52; the median was 3.91 and 95% of these signals were weaker than 2.90. No background was subtracted.

CDR-L1 | CDR-L2 | CDR-L3 | mean, log10 nM | replicates with signal
HGDSLRYQYAI | GKNNRPS | SSRDSSGFQVF | 4.07 | 3/3
EGDSHRYYYAN | GKNNRPP | SSRDSSGFQVF | 4.34 | 2/3
EYDSLRYYYAN | GNNNRPS | SSRDFSGFQVF | 2.98 | 2/3
GGDSLRYYYAQ | GKNNRPS | SSRDSSDFQVF | 3.47 | 1/3
HGDSLRYRYAN | GKNNRPS | SSRDCSGFQVF | 2.04 | 3/3
EGDSLRYFYAN | GKNNRPS | SHRDSSGFQVK | no signal | 0/3
EGDFLRYYYDN | GKNNRPS | SSRVSSGFQVF | 4.45 | 1/3
EGDSLRTYYAN | GKNNRPS | SSRDSSGFQFF | 2.65 | 3/3
EGASLRYYYIN | GKNNRPS | SCRDSSGFQVF | 3.19 | 3/3
EGDSLYRYYAN | GKNNQPS | SSRDSSGFQVF | 3.87 | 2/3
EGDSERHYYAN | GKNNRPS | SSRWSSGFQVF | 4.22 | 3/3
EGDSLRDYVAN | GKNNLPS | SSRDSSGFQVF | 3.06 | 3/3
LWDSLRYYYAN | GKNNRPS | SSHDSSGFQVF | no signal | 0/3
EGDSLKYYYAR | GKNNRPS | SSRDSSGFQVF | 3.50 | 3/3
EGDSLRYYYVN | GKNNRCS | WSRDSSGFQVF | 4.76 | 3/3
EGYSLRYYYAA | GKNNRPS | QSRDSSGFQVF | 3.05 | 3/3
EGDFLRYYYAN | GKNNRYS | SSRDSSGFQVT | 2.96 | 2/3
EGDSLTYYYAN | GKNARPS | YSRDSSGFQVF | 4.35 | 1/3
EGDLLEYYYAN | GKNNRPS | SSRDVSGFQVF | 3.91 | 2/3
EGDSLRYYYAN | HKNIRPS | SGRDSSGFQVF | 4.55 | 3/3
EGDSLAYYYAN | GKNNFPS | SSIDSSGFQVF | no signal | 0/3
EGDSLRIYYAN | GKNNRPS | SRRDWSGFQVF | 4.20 | 2/3
EGDSPRYYYAN | GKNNRPS | SSRMSKGFQVF | 4.85 | 3/3
EGDSLRYYYAN | GKNNRPS | YSRWSSGTQVF | 3.44 | 3/3
EGDSDRYYYAN | GKNNRPS | SCRYSSGFQVF | 3.57 | 3/3
EGDSLRYYNAN | GKNNRPS | SCSDSSGFQVF | 1.29 | 3/3
EGDSLRYVYAI | GKNNRPS | SSRDSSGFQVC | 4.06 | 1/3
EGDSLRYYYAN | GINNFPS | SSRDSSGFQVF | no signal | 0/3
EGDSLRYYYAN | GKKNRPS | SSHDSSGFQVF | 3.70 | 2/3
EGDSLRYYYAN | GANNRPI | MSRDSSGFQVF | 1.96 | 3/3
VGDSLRYYYAN | GKNMRPS | SSRESSGFQVF | 2.74 | 3/3
EGDSLRYYYAN | GKNKRPS | SSRDSMGFQVF | 3.77 | 3/3
EGDSLRYYRAN | GKNNRLS | SSRFSSGFQVF | 5.28 | 1/3
EGMSLRYYYAN | GKNRRPS | SKRDSSGFQVF | no signal | 0/3
EGDSLRYYYAN | GKNTRDS | SSRDSSTFQVF | 4.15 | 2/3
EGDSLRYYYAN | GFNNRPS | SSRDHSGFQVF | 1.72 | 3/3
EGDSLRYYYAN | GKNVRPS | SSRDSSNFSVF | 2.99 | 3/3
EGMSLRYYWAN | GKNNRPS | SSRDSSGFQVY | 3.96 | 3/3
EGDSLHYYYAN | GKNNRPS | SSRQSSGRQVF | 4.64 | 1/3
EGDSLRYYIAN | GKNLRPS | SRRDSSGFQVF | 3.15 | 1/3
EGDSLLYYYAN | GKNNRPS | SSRDSSGFKVF | 3.95 | 3/3
EGFSLRYYYAD | GKNNRPS | SSRDSPGFQVF | 5.08 | 3/3
EGRYLRYYYAS | GKNNRPS | SSRDSSGFQVF | 4.28 | 3/3
EGDSLRYYYAN | GKNNRPY | PSFDSSGFQVF | 3.82 | 3/3
MGDSLRYYYAN | GINNRPS | SSHDSSGFQVF | 2.89 | 3/3
EGDSLRYYYAN | FKNNRPS | SSRDSLGFQVF | 4.20 | 3/3
EGDSNRYYYAN | GKNERPS | SSRDSSGFQVF | 2.90 | 3/3
EGDSLRYYYAN | GKNNRPS | SSNNASGFQVF | 2.46 | 3/3
EGDSLRYYYAN | GKNNRPG | SSRWSSIFQVF | 2.41 | 3/3
EGDSLEYYYAN | GKNNRWS | SSRDSGGFQVF | 3.09 | 2/3
EGDSLRYYYAN | FKNNRPE | SDRDSSGFQVF | 2.83 | 1/3
EGDPLRYYYAN | GKNNYPS | SSRDSQGFQVF | 4.88 | 2/3
EGDSLRYYPAN | GKNNKPS | SSGDSSGFQVF | 3.35 | 2/3
EGDSRRYYYMN | GKNNRPS | SVRDSSGFQVF | 3.97 | 2/3
EGDSLRYYYAN | GKNNEPS | SSRDQSGQQVF | 3.01 | 3/3
EGNPLRYYYAN | GKNERPS | SSRDSSGFQVF | 2.22 | 3/3
EGDSIRYYYAM | GKNNRPS | SSQDSSGFQVF | 4.82 | 1/3
EGDSLRYYYAP | GKNNRPS | SSRDLFGFQVF | 4.86 | 1/3
EGDSLRYYYAN | GKNNRVS | SSRDSSGMAVF | 3.89 | 3/3
EGDSLRYYYFN | GKNNRPS | SSRLSSGIQVF | 3.83 | 1/3
EVDSLRYYYAN | GKNNFPS | SSRDSSGFQVG | 4.31 | 1/3
EGDSLRYYYAN | GKNNRPS | SSWDWSGFQVN | 4.75 | 1/3
EGDSLPYYYAN | GKLNRPS | SSRDSEGFQVF | 3.51 | 1/3
EGDSLRYYYAN | IKNNRPS | SSRDSQGFYVF | no signal | 0/3
EGDSLRYYYAN | GKNNRWS | SSRDSQGFQVF | 3.58 | 2/3
EGDSTRYYYAV | GKNNRPS | SSRDSSGFQVF | 2.03 | 3/3
EGDSLRYYYAN | GDPNRPS | SARDSSGFQVF | 3.23 | 3/3
EGFSLRYGYAN | GKNNRPS | SSRDSSLFQVF | 2.80 | 3/3
EGDSLRYYYAN | GKNNRPS | SSRDSDWFQDF | no signal | 0/3
EGDSLRYYYAN | GKNNRAS | SSIDSSGFAVF | 2.99 | 3/3

The first 7 variants above that were never detected:

CDR-L1	CDR-L2	CDR-L3	mean, log10 nM	replicates with signal
EGDSLRYFYAN	GKNNRPS	SHRDSSGFQVK	no signal	0/3
LWDSLRYYYAN	GKNNRPS	SSHDSSGFQVF	no signal	0/3
EGDSLAYYYAN	GKNNFPS	SSIDSSGFQVF	no signal	0/3
EGDSLRYYYAN	GINNFPS	SSRDSSGFQVF	no signal	0/3
EGMSLRYYYAN	GKNRRPS	SKRDSSGFQVF	no signal	0/3
EGDSLRYYYAN	IKNNRPS	SSRDSQGFYVF	no signal	0/3
EGDSLRYYYAN	GKNNRPS	SSRDSDWFQDF	no signal	0/3